Ab-14 heavy chain CDR variants: yeast mating affinities

Data: MIT Lincoln Laboratory AlphaSeq set, Engelhart et al. 2022, doi:10.1038/s41597-022-01779-4, as distributed in FLAb.

Target: peptide PDVDLGDISGINAS, taken from heptad repeat 2 (HR2) of SARS-CoV-2 spike.

Ab-14 is the parent antibody, in scFv form: VH, then the linker GGGGSGGGGSGGGGS, then VL. The light chain is unchanged in all variants.
VH: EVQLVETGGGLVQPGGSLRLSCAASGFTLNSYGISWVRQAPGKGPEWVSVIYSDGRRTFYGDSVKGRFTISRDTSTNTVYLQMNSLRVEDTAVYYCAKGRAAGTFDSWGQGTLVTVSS
VL: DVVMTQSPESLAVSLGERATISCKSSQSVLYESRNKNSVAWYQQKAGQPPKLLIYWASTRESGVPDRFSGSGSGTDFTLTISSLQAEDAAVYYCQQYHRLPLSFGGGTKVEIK

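In library AAYL49, one, two or three CDR residues were substituted; doubles and triples were drawn at random. The assay is AlphaSeq: two haploid yeast populations carry antibody and antigen on their surface. Mating (16 h, 30 °C) was followed by selection of diploids and sequencing of their barcodes. Read counts were normalised to the haploid input and turned into Kd by a linear fit to BCL2-family pairs of known affinity, for each replicate. Each pool was mated in three replicate cultures.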

Substitutions are numbered in sequence along the VH above, starting at 1 (not Kabat). Values are log10 of the apparent Kd in nM; lower means stronger binding. A mean of the replicates is given; it leaves out those without a signal. "n.d." marks a missing value. The strain was present, yet no cells mated with the target were sequenced in that replicate, which points to weak or no binding. Background: pairings of library AAYL49 with three empty control strains gave a value in 15% of cases (median 4.06, 5th percentile 2.83). Values in that range, when seen in few replicates, are hard to tell from nonspecific mating. For each scFv, signals with the empty controls are counted beside the result, with their mean in brackets.

changes | replicates, log10 nM | mean log10 Kd (nM) | control signals
R57S S63R R100V | n.d. / n.d. / n.d. | n.d. | 1 of 9 (4.25)
L29A G99F F105V | n.d. / 3.06 / n.d. | 3.06 | 0 of 9
A102I D106S | n.d. / n.d. / n.d. | n.d. | 0 of 9
T28I V50C Y60P | n.d. / n.d. / 3.71 | 3.71 | 2 of 9 (3.96)
S31C G33L F59Y | n.d. / n.d. / n.d. | n.d. | 1 of 9 (2.91)
R100K A101G D106F | 3.92 / 3.70 / n.d. | 3.81 | 0 of 9
S53T G103V F105A | n.d. / 2.93 / 5.17 | 4.05 | 1 of 9 (4.18)
T28D Y32L T58M | 1.46 / 1.59 / 1.53 | 1.52 | 0 of 9
S35I R56L T58N | n.d. / n.d. / n.d. | n.d. | 2 of 9 (2.80)
Y32N S53H R57I | 3.78 / 3.74 / n.d. | 3.76 | 2 of 9 (4.77)
G26F S35T G61S | n.d. / 4.47 / n.d. | 4.47 | 2 of 9 (3.89)
Y32C I34C V50P | n.d. / n.d. / 4.02 | 4.02 | 1 of 9 (4.14)
S63V R100G G103K | n.d. / n.d. / n.d. | n.d. | 1 of 9 (4.41)
G33I Y52E V64R | n.d. / 4.28 / 4.63 | 4.46 | 5 of 9 (4.42)
I34H G55A T58V | n.d. / 2.69 / n.d. | 2.69 | 0 of 9
F27V S53I D106F | 4.85 / 3.37 / 4.00 | 4.08 | 8 of 9 (4.67)
T28P D54W G99S | n.d. / n.d. / n.d. | n.d. | 1 of 9 (3.27)
T28A R57V F105D | n.d. / n.d. / 3.76 | 3.76 | 3 of 9 (4.74)
T28R K65M A102E | 5.01 / n.d. / n.d. | 5.01 | 0 of 9
I51F V64N D106C | n.d. / 4.43 / 2.50 | 3.46 | 0 of 9
F59Q D62F T104G | n.d. / n.d. / n.d. | n.d. | 0 of 9
T28F I34G R57V | n.d. / n.d. / n.d. | n.d. | 0 of 9
L29F T58I V64L | n.d. / n.d. / n.d. | n.d. | 0 of 9
S31P G55L D106G | n.d. / n.d. / n.d. | n.d. | 1 of 9 (3.51)
Y32I K65G G103L | 5.69 / n.d. / n.d. | 5.69 | 4 of 9 (4.50)
S31F G55K | 5.05 / n.d. / n.d. | 5.05 | 2 of 9 (4.46)
S31R G99D T104S | 1.26 / 1.12 / 1.37 | 1.25 | 6 of 9 (4.30)
D54E A101I T104W | n.d. / 2.86 / n.d. | 2.86 | 1 of 9 (2.47)
G26L K65T G103R | n.d. / n.d. / n.d. | n.d. | 0 of 9
I51G G61N K65I | n.d. / n.d. / n.d. | n.d. | 0 of 9
G26P I34L Y52K | n.d. / n.d. / n.d. | n.d. | 0 of 9
G61I D106S | 0.56 / 0.76 / 0.95 | 0.76 | 1 of 9 (3.94)
Y60I S63E A102R | n.d. / n.d. / n.d. | n.d. | 0 of 9
S53N V64R F105Q | n.d. / n.d. / n.d. | n.d. | 0 of 9
S35Y D62H D106Q | n.d. / n.d. / n.d. | n.d. | 1 of 9 (3.82)
I34C D62I T104V | n.d. / n.d. / n.d. | n.d. | 1 of 9 (3.49)
Y52F G55N T58Y | n.d. / n.d. / n.d. | n.d. | 1 of 9 (3.71)
Y60M R100M T104C | 3.39 / 4.10 / n.d. | 3.75 | 0 of 9
S31D G33M S53W | 6.03 / 5.58 / n.d. | 5.81 | 2 of 9 (3.85)
F27W Y52A Y60M | n.d. / 3.34 / n.d. | 3.34 | 1 of 9 (3.56)
R57G F59V G99Y | 4.93 / n.d. / n.d. | 4.93 | 1 of 9 (3.54)
R56L G61R S107Q | 0.35 / 0.59 / 0.49 | 0.48 | 1 of 9 (4.71)
S31E G99R S107F | n.d. / n.d. / n.d. | n.d. | 2 of 9 (3.43)
D54T F59K D106M | n.d. / n.d. / n.d. | n.d. | 0 of 9
Y52C R57A S63V | n.d. / n.d. / 3.09 | 3.09 | 1 of 9 (4.40)

The first 5 entries again:

changes | replicates, log10 nM | mean log10 Kd (nM) | control signals
R57S S63R R100V | n.d. / n.d. / n.d. | n.d. | 1 of 9 (4.25)
L29A G99F F105V | n.d. / 3.06 / n.d. | 3.06 | 0 of 9
A102I D106S | n.d. / n.d. / n.d. | n.d. | 0 of 9
T28I V50C Y60P | n.d. / n.d. / 3.71 | 3.71 | 2 of 9 (3.96)
S31C G33L F59Y | n.d. / n.d. / n.d. | n.d. | 1 of 9 (2.91)